Source: article PMC5702903 (CPT: Pharmacometrics & Systems Pharmacology, 2017)

Assay: Asymmetry factors
Design: species or system rat
Settings: for AFin2, asymmetry factor: into CSFLV at BCSFB1; for AFin2, asymmetry factor / AFout2, asymmetry factor: calculated from Kp,uu,CSFLV; for AFin3, asymmetry factor: into CSFTFV at BCSFB2; for AFin3, asymmetry factor / AFout3, asymmetry factor: calculated from Kp,uu,CSFCM; for AFin1, asymmetry factor: into brainECF at BBB; for AFin1, asymmetry factor / AFout1, asymmetry factor: calculated from Kp,uu,brainECF; for AFout2, asymmetry factor: out from CSFLV at BCSFB1; for AFout3, asymmetry factor: out from CSFTFV at BCSFB2; for AFout1, asymmetry factor: out from brainECF at BBB

With `CC(=O)Nc1ccc(O)cc1` [Acetaminophen] the “AFin2, asymmetry factor” value was 1.0, the “AFin3, asymmetry factor” value was 1.0 and the “AFin1, asymmetry factor” value was 1.0. The “AFout2, asymmetry factor” value was 29, the “AFout3, asymmetry factor” value was 32 and the “AFout1, asymmetry factor” value was 12.

For `C=C[C@H]1C[N@@]2CC[C@H]1C[C@@H]2[C@@H](O)c1ccnc2ccc(OC)cc12` [Quinidine], the “AFin2, asymmetry factor” value was 1.4, the “AFin3, asymmetry factor” value was 1.4 and the “AFin1, asymmetry factor” value was 1.2. The “AFout2, asymmetry factor” value was 1.0, the “AFout3, asymmetry factor” value was 1.0 and the “AFout1, asymmetry factor” value was 1.0.

For `CN(Cc1cnc2nc(N)nc(N)c2n1)c1ccc(C(=O)N[C@@H](CCC(=O)O)C(=O)O)cc1` [Methotrexate], the “AFin2, asymmetry factor” value was 1.0, the “AFin3, asymmetry factor” value was 1.0 and the “AFin1, asymmetry factor” value was 1.0. For the same molecule, the “AFout3, asymmetry factor” value was 1.0*10^6 and the “AFout1, asymmetry factor” value was 4.6*10^4.
